Source: PubChem (National Center for Advancing Translational Sciences (NCATS))
Hits are enriched below; roughly 16% of the tested compounds scored in any of these assays.
miR-21 reporter = raises the signal of a miR-21 reporter | HeLa miR-21 FLuc reporter, luciferase, 48 h | Potency, µM (highest dose often 38.3 µM) | 340,000 tested, under 10 active | AID 2288; active = well fitted rising curve with a large enough effect; inconclusive = small, poorly fitted or top-dose-only effect; inactive = no such curve, though single readings can be large or run the other way;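 note: miR-21 action dims this reporter so a rising signal means less miR-21 action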
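Luminescence from a firefly luciferase reporter carrying a miR-21 binding site downstream, stably expressed under a CMV promoter in HeLa cells that make miR-21 endogenously, reports miRNA modulation after 48 h compound exposure up to approximately 40uM final.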
TDP1 cell noCPT = qHTS for Inhibitors of human tyrosyl-DNA phosphodiesterase 1 (TDP1): qHTS in cells in absence of CPT; DT40 Tdp1-/- hTDP1 cells, no CPT, ATP luminescence, 48 h; Potency, µM (highest dose often 46.2 µM), most hits filed as inhibitors; hit rate 15% among 420,000; further: nearly all actives have a fitted effect of over 55% in size
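DT40 Tdp1-/-;hTDP1 cells, no CPT (DMSO vehicle only), 400 cells/well; compounds pin-transferred; ≥48 hr, 37 °C; CellTiter-Glo 30 min RT dark, luminescence read.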
TDP1 cell CPT = growth inhibition of DT40 Tdp1-/-;hTDP1 cells with camptothecin (screen for TDP1 inhibitors); AID 686979; Potency, µM (titrated, usually from 46.2 µM), actives largely listed as inhibitors; hit rate 12% among 420,000; chicken DT40 Tdp1-/-;hTDP1 cells + 20 nM CPT, ATP luminescence, 48 h; further: nearly all actives have a fitted effect of over 55% in size
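Chicken DT40 Tdp1-/- cells complemented with human TDP1, 400 cells/well, exposed to compounds plus 20 nM camptothecin for at least 48 h at 37 C; viability read as ATP content by CellTiter-Glo luminescence.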
TDP1 block = blocks human tyrosyl-DNA phosphodiesterase 1; Q9NUW8; recombinant TDP1, AlphaScreen DNA substrate cleavage; Potency, µM (series often up to 130 µM), actives largely listed as inhibitors; hit rate 0.28% among 350,000; further: nearly all actives have a fitted effect of over 40% in size
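Here, a 5' biotin and 3' phosphotyrosine-FITC DNA oligonucleotide reports Tdp1 activity: intact substrate bridges AlphaScreen beads, while cleavage leaves a 3' phosphate and drops signal. All incubations at room temperature.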
uPA generation = cell surface uPA generation inhibition; cell surface uPA generation assay, qHTS; hit rate 0.31% among 330,000; Potency, µM (highest dose often 38.3 µM), hits mostly inhibitors; active means well fitted inhibition curve with a large enough effect; inconclusive means small, poorly fitted or top-dose-only effect; inactive means no such curve, though single readings can be large or run the other way; tested in mouse RAW 264.7 cells; further: nearly all actives have a fitted effect of over 55% in size
Of the large screens only hits and unclear results are named; the others gave an inactive call. Unless noted, the call rests on the fitted dose curve; in most records, active means well fitted curve in the direction sought with a large enough effect; inconclusive means small, poorly fitted or top-dose-only effect, or another doubt; inactive means no such curve, though single readings can be large; an effect the other way counts as inactive or inconclusive.

O=C(OC(C(=O)N1CCOCC1)c1ccccc1)c1c2c(nc3ccccc13)CCCC2 (stereo unspecified)	TDP1 cell noCPT 14µM, TDP1 cell CPT inconclusive (no result: miR-21 reporter, TDP1 block, uPA generation)
CC1Cc2ccccc2N1C(=O)COC(=O)CCc1nc2ccccc2c(=O)[nH]1 (stereo unspecified)	TDP1 cell noCPT 18µM, TDP1 cell CPT 29µM
COc1ccc(C(=O)Nn2cnc3scc(-c4cccs4)c3c2=O)c(O)c1	TDP1 cell noCPT inconclusive
CCCn1ncc(C(=O)N(C)C2CCCN(Cc3ccccc3F)C2)c1C (stereo unspecified)	none
NC(=O)COC(=O)c1c2c(nc3ccccc13)CCCCC2	none
O=C(COC(=O)c1c2c(nc3ccccc13)CCCC2)c1cccs1	TDP1 cell noCPT inconclusive, TDP1 cell CPT 29µM
Cc1cc(SCC(=O)Nc2cccc(S(=O)(=O)NC3=NCCCCC3)c2)nc2ccccc12	TDP1 cell noCPT inconclusive, TDP1 cell CPT inconclusive, uPA generation inconclusive (no result: TDP1 block)
O=C(Nc1cccc(F)c1)c1ccc2snnc2c1	none (no result: uPA generation)
C[C@H](NC(=O)c1[nH]cnc1C(=O)Nc1cccc(Cl)c1)c1ccccc1	TDP1 cell noCPT 16µM, TDP1 cell CPT inconclusive (no result: miR-21 reporter)
C[C@@H](NC(=O)c1[nH]cnc1C(=O)Nc1ccon1)c1ccccc1	TDP1 cell noCPT inconclusive, TDP1 cell CPT 16µM (no result: miR-21 reporter)
C[C@H](NC(=O)c1[nH]cnc1C(=O)Nc1ccon1)c1ccccc1	TDP1 cell noCPT inconclusive, TDP1 cell CPT inconclusive (no result: miR-21 reporter)
CCOC(=O)N1CCC(N2C(=O)c3ccccc3C2Nc2cc(C)cc(C)c2)CC1 (stereo unspecified)	TDP1 cell noCPT 15µM, TDP1 cell CPT inconclusive
CCOC(=O)N1CCC(N2C(=O)c3ccccc3C2Nc2ccc(C)cc2)CC1 (stereo unspecified)	TDP1 cell noCPT inconclusive, TDP1 cell CPT inconclusive
O=C(CCOc1ccccc1)NNC(=O)c1ccccc1	none (no result: miR-21 reporter)
CCc1nc(N)c(C#N)c(-c2cccc3ccccc23)c1C	none
CCCOc1nc(N)c(C#N)c(-c2ccccc2F)c1C#N	TDP1 cell noCPT inconclusive, TDP1 cell CPT 16µM
O=C(Cn1c(NCCCO)nc2ccccc21)c1ccc(F)cc1	none (no result: TDP1 block)
COC(=O)c1cc2c([nH]c3ccccc32)c(C)n1	none (no result: TDP1 cell noCPT, TDP1 cell CPT, uPA generation)
C(=C/c1nccc2c1[nH]c1ccccc12)/c1ccc2c(c1)OCO2	TDP1 cell noCPT 11µM, TDP1 cell CPT 5.6µM
COc1ccc2[nH]c3ccccc3c2c1	none
COC(=O)c1nccc2c1[nH]c1ccccc12	TDP1 cell noCPT 23µM, TDP1 cell CPT inconclusive (no result: miR-21 reporter, TDP1 block)
COc1ccc(/C=C/c2nccc3c2[nH]c2ccccc23)cc1	TDP1 cell noCPT 11µM, TDP1 cell CPT inconclusive (no result: miR-21 reporter, uPA generation)
CCOc1ccc(CN2CCN(Cc3cnn(CC)c3C)CC2CCO)cc1 (stereo unspecified)	TDP1 cell CPT inconclusive
CCN(C(=O)COC(=O)/C=C/c1ccccc1[N+](=O)[O-])C1CCS(=O)(=O)C1 (stereo unspecified)	none
CC(C)C(=O)N1CCN(c2ccccc2NC(=O)c2ccc([N+](=O)[O-])o2)CC1	TDP1 cell noCPT inconclusive, TDP1 cell CPT 16µM (no result: TDP1 block)
CCC(=O)N1CCN(c2ccccc2NC(=O)c2ccc([N+](=O)[O-])o2)CC1	TDP1 cell noCPT 18µM, TDP1 cell CPT 18µM
NC(=O)NCc1ccc(C(=O)OCc2ccncc2)cc1	none
CC(C)NC(=O)CN(Cc1ccc(F)cc1)C(=O)CCC(=O)Nc1ccccn1	none
Cc1ccc(Nc2oc(C)nc2C#N)cc1	none
COc1cc(CC(=O)OCC(=O)Nc2ccc(S(=O)(=O)N3CCCC3)cc2)cc(OC)c1OC	none
CCc1ccccc1NC(=O)CN1CCN(C(=O)CCC(=O)N2CCC(c3ccccc3)=N2)CC1	TDP1 cell noCPT 26µM, TDP1 cell CPT 15µM (no result: miR-21 reporter)
CSc1ccc(CNC(=O)CCn2ccc3cc(S(=O)(=O)N4CCC(C)CC4)ccc32)cc1	TDP1 cell noCPT inconclusive, TDP1 cell CPT 21µM (no result: uPA generation)
CC1CCN(S(=O)(=O)c2ccc3c(ccn3CC(=O)NCc3ccccc3F)c2)CC1	TDP1 cell noCPT inconclusive, TDP1 cell CPT 21µM (no result: uPA generation)
CC1CCN(S(=O)(=O)c2ccc3c(ccn3CCC(=O)NCc3ccccc3F)c2)CC1	TDP1 cell noCPT inconclusive, TDP1 cell CPT 16µM (no result: uPA generation)
O=C(CCn1ccc2cc(S(=O)(=O)N3CCCC3)ccc21)NCc1cccc(F)c1	TDP1 cell noCPT inconclusive, TDP1 cell CPT inconclusive
CC1(C(=O)Nc2ccc3c(c2)OCCO3)CSCC(=O)N1CCCN1CCOCC1 (stereo unspecified)	none (no result: miR-21 reporter, TDP1 block, uPA generation)
COc1ccc(Cl)cc1NC(=O)c1nnn(CC(=O)Nc2ccc3c(c2)OCO3)c1N	none
COc1ccc(/C=C2\CCC(C3CCCC3)C2=O)c(OC)c1 (stereo unspecified)	none (no result: TDP1 block)
CCOC(=O)c1c(C)oc2nc(C)nc(Nc3cccc(OC)c3)c12	none (no result: uPA generation)
CCOC(=O)c1c(C)oc2nc(C)nc(NCc3ccc(F)cc3)c12	TDP1 cell noCPT 16µM, TDP1 cell CPT inconclusive (no result: uPA generation)
CCOC(=O)c1c(C)oc2nc(C)nc(NCC3CCN(Cc4ccc(Cl)cc4)CC3)c12	TDP1 cell noCPT inconclusive, TDP1 cell CPT inconclusive (no result: uPA generation)
CCOC(=O)c1c(C)oc2nc(C)nc(NCc3ccc(OC)cc3OC)c12	TDP1 cell noCPT 13µM, TDP1 cell CPT inconclusive (no result: uPA generation)
CCOC(=O)c1c(C)oc2nc(C)nc(NC(C)c3ccccc3)c12 (stereo unspecified)	TDP1 cell noCPT 16µM, TDP1 cell CPT 21µM (no result: uPA generation)
